Reference: paper PMC3961306, “Comparison of the Cancer Gene Targeting and Biochemical Selectivities of All Targeted Kinase Inhibitors Approved for Clinical Use” (PLoS ONE, 2014)

Chains of the proteins cited; added tags and fusions are not shown.
UniProt Q9UQM7, whole entry, stated change not applied: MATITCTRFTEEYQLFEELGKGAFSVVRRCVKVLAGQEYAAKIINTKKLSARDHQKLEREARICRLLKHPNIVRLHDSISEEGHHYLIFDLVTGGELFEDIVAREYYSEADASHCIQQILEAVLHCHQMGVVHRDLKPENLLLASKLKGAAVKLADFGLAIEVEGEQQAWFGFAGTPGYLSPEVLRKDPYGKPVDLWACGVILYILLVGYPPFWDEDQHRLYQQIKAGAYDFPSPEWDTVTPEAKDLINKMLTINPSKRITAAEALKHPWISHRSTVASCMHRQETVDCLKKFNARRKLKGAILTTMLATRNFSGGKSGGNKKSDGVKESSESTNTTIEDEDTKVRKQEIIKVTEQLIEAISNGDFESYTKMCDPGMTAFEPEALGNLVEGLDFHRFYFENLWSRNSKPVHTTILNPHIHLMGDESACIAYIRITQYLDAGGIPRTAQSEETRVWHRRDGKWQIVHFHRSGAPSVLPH
UniProt P31749, whole entry, stated change not applied: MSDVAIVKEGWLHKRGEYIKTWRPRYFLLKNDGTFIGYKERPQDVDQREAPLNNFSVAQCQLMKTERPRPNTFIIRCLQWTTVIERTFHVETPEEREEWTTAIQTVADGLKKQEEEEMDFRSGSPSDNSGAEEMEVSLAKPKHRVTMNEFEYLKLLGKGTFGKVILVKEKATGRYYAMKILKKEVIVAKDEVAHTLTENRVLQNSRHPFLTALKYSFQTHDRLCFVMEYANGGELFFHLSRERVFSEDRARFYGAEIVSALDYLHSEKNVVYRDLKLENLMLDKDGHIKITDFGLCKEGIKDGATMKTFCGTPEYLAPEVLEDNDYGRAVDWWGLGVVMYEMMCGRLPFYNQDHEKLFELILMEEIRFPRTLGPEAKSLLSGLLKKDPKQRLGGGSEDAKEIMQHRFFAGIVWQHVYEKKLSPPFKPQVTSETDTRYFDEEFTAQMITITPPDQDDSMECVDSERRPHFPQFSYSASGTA
UniProt Q13131, whole entry, stated change not applied: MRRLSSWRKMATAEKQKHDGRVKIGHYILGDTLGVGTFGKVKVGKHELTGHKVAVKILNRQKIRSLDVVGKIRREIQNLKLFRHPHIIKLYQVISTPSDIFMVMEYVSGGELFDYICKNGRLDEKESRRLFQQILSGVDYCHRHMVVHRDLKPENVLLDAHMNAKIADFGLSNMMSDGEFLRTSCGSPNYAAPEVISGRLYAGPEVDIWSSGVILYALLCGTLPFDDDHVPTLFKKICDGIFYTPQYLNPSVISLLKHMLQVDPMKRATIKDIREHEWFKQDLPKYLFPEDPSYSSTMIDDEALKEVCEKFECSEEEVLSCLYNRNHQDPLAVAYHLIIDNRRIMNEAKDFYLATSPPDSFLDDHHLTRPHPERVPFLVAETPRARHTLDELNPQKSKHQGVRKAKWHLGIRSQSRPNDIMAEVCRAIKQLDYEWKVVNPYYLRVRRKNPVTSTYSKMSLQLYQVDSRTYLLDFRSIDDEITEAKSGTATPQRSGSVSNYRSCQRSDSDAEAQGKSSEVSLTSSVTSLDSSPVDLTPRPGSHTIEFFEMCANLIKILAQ
UniProt Q9H4B4, whole entry, stated change not applied: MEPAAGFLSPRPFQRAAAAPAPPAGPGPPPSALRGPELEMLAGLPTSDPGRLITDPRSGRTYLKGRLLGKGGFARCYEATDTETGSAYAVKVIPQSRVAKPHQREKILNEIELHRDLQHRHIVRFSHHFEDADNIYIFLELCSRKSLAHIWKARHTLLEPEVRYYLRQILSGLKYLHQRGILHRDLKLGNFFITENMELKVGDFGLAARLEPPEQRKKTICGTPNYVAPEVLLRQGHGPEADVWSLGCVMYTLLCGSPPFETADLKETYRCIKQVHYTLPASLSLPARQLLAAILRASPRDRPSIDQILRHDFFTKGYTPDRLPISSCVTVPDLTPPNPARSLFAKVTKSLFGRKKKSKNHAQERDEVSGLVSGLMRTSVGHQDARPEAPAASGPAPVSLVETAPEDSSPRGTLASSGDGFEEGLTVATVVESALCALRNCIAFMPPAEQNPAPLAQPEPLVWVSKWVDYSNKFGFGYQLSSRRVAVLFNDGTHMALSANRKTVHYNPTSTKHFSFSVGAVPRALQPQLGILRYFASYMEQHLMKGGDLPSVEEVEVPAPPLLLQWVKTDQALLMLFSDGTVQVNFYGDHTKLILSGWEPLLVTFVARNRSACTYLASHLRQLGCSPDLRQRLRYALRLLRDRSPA
UniProt Q13233, whole entry, stated change not applied: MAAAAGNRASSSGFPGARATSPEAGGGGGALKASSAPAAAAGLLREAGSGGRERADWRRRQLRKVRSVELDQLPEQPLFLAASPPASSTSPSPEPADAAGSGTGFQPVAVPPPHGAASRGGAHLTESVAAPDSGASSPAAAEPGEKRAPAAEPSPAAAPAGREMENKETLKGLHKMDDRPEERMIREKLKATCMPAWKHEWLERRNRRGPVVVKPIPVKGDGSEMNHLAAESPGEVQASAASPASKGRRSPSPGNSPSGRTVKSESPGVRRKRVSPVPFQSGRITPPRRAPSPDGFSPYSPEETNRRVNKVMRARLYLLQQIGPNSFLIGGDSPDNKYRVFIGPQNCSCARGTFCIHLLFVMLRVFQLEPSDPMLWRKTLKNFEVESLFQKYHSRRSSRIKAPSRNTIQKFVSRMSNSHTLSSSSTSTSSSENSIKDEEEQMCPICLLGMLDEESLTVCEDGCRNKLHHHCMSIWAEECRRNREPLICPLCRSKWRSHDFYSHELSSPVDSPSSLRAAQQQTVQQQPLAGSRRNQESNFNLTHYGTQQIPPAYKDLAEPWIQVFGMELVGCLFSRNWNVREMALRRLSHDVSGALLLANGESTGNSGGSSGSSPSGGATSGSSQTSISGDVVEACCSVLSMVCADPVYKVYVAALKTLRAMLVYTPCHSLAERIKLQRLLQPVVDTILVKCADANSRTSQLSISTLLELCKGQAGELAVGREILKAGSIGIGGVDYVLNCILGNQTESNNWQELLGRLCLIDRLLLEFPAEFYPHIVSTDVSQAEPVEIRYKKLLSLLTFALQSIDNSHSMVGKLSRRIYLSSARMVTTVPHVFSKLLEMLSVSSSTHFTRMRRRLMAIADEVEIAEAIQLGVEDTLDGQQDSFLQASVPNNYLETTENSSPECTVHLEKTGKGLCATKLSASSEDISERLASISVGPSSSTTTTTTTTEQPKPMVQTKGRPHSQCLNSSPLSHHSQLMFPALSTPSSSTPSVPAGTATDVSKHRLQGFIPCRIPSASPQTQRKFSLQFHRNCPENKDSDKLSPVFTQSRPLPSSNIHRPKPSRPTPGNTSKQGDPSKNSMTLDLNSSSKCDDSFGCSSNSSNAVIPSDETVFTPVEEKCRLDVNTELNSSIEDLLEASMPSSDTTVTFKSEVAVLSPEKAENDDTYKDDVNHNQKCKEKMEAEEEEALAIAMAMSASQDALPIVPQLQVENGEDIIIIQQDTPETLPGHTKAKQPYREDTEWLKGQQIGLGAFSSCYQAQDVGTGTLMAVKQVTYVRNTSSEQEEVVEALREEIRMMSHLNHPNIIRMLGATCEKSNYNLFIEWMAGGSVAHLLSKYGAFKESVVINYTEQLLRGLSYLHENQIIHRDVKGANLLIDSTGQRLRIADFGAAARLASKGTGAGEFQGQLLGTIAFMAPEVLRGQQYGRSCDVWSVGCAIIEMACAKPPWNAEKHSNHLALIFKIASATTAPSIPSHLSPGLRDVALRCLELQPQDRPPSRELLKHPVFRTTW
UniProt P53350, whole entry, stated change not applied: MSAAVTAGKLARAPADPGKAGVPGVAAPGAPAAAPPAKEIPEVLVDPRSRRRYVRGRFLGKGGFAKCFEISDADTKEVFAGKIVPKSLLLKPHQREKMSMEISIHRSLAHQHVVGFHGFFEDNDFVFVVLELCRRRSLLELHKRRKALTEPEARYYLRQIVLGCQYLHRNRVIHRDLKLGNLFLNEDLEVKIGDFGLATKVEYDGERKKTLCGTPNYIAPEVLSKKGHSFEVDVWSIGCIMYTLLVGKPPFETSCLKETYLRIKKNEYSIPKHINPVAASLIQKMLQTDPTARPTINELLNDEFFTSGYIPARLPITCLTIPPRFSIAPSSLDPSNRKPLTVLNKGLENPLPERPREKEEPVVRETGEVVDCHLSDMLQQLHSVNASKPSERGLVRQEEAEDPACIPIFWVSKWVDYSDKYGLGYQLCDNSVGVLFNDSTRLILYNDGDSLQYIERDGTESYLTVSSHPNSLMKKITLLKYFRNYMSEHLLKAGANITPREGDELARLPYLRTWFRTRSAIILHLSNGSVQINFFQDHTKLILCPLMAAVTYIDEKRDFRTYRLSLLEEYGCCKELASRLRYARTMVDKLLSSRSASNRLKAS
UniProt P11802, whole entry, stated change not applied: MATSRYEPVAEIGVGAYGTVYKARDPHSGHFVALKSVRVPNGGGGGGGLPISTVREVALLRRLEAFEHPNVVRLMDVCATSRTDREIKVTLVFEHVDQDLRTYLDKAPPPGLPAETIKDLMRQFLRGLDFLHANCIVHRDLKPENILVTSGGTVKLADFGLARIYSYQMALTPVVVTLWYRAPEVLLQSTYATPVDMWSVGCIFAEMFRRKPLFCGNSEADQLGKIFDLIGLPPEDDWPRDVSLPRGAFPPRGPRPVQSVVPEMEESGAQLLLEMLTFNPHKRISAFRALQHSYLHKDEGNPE
UniProt O75582, whole entry, stated change not applied: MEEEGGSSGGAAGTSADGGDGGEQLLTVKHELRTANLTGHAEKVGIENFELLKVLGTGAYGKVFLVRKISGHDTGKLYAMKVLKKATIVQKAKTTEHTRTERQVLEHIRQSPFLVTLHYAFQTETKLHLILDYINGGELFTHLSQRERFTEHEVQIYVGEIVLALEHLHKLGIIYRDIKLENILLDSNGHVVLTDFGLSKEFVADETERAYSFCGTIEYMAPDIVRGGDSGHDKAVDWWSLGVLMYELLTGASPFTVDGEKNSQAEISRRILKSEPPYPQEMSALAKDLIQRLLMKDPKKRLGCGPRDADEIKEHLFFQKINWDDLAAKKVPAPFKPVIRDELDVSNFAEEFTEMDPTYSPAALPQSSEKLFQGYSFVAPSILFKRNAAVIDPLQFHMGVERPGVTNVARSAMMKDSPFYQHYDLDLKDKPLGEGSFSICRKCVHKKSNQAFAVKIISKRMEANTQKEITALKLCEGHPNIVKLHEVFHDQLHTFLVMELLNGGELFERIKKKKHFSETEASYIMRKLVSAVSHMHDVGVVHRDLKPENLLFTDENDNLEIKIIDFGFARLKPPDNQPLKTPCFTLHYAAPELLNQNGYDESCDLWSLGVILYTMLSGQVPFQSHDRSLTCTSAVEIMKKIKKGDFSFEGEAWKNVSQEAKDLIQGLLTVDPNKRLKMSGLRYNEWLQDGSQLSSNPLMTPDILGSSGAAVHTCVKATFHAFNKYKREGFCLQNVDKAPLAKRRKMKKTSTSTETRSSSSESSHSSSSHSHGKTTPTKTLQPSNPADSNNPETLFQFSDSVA
UniProt Q02779, whole entry, stated change not applied: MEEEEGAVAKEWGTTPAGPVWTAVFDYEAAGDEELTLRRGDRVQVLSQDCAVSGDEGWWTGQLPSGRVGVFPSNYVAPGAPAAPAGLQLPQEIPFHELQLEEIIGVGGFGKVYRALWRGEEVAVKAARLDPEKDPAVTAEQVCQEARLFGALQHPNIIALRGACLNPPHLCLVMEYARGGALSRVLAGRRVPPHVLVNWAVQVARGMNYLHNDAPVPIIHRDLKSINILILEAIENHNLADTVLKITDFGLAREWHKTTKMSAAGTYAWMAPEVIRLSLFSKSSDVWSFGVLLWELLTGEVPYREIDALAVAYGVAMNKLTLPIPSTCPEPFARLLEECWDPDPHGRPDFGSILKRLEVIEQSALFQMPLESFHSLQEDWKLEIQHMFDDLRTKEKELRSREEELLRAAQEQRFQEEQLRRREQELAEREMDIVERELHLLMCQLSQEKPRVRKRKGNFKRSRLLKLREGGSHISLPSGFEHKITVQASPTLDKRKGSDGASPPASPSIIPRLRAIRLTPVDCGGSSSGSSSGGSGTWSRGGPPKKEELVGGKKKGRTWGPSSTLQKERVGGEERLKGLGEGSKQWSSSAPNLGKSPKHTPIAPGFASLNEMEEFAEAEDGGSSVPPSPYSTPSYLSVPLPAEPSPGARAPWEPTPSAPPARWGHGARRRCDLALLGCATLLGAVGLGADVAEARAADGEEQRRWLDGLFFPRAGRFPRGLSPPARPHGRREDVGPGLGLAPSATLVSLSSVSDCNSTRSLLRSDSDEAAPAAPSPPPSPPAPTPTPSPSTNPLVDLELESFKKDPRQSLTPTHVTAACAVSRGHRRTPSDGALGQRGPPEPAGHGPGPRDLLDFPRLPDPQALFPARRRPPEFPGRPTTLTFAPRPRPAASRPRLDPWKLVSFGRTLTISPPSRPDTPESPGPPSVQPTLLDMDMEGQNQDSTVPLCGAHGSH

Key:
Test in all cases: Kinase profiling in a biochemical assay panel (mobility shift assays and ELISA), %-inhibition at 1 μM; selectivity entropy
[1] = target: panel of more than 300 wild-type and mutant kinases (313 kinase panel) (Homo sapiens, UniProt Q9UQM7)
[2] = target: panel of more than 300 wild-type and mutant kinases (313 kinase panel) (Homo sapiens, UniProt P31749)
[3] = target: panel of more than 300 wild-type and mutant kinases (313 kinase panel) (Homo sapiens, UniProt P06493)
[4] = target: panel of more than 300 wild-type and mutant kinases (313 kinase panel) (Homo sapiens, UniProt Q00534)
[5] = target: panel of more than 300 wild-type and mutant kinases (313 kinase panel) (Homo sapiens, UniProt Q13131)
[6] = target: panel of more than 300 wild-type and mutant kinases (313 kinase panel) (Homo sapiens, UniProt Q86Z02)
[7] = target: panel of more than 300 wild-type and mutant kinases (313 kinase panel) (Homo sapiens, UniProt Q9UHD2)
[8] = target: panel of more than 300 wild-type and mutant kinases (313 kinase panel) (Homo sapiens, UniProt Q13555)
[9] = target: panel of more than 300 wild-type and mutant kinases (313 kinase panel) (Homo sapiens, UniProt P10721, T670I)
[10] = target: panel of more than 300 wild-type and mutant kinases (313 kinase panel) (Homo sapiens, UniProt P68400)
[11] = target: panel of more than 300 wild-type and mutant kinases (313 kinase panel) (Homo sapiens, UniProt Q9H4B4)
[12] = target: panel of more than 300 wild-type and mutant kinases (313 kinase panel) (Homo sapiens, UniProt Q13233)
[13] = target: panel of more than 300 wild-type and mutant kinases (313 kinase panel) (Homo sapiens, UniProt P53350)
[14] = target: panel of more than 300 wild-type and mutant kinases (313 kinase panel) (Homo sapiens, UniProt Q9UK32)
[15] = target: T1, panel of more than 300 wild-type and mutant kinases (313 kinase panel) (Homo sapiens, UniProt P46734)
T1 sequence (P46734 1-347): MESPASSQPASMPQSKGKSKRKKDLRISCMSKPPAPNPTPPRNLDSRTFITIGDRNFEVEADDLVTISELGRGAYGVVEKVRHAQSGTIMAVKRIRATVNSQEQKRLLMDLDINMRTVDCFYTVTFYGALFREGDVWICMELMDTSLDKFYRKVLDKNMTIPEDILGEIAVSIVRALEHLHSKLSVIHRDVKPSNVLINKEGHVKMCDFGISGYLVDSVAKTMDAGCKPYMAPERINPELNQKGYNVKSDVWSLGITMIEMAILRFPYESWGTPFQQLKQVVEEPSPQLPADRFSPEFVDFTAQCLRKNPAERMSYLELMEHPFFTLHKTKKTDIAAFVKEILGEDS

[16] = target: panel of more than 300 wild-type and mutant kinases (313 kinase panel) (Homo sapiens, UniProt P11802)
[17] = target: panel of more than 300 wild-type and mutant kinases (313 kinase panel) (Homo sapiens, UniProt P07332)
[18] = target: panel of more than 300 wild-type and mutant kinases (313 kinase panel) (Homo sapiens, UniProt Q15759)
[19] = target: panel of more than 300 wild-type and mutant kinases (313 kinase panel) (Homo sapiens, UniProt P10721, V654A)
[20] = target: panel of more than 300 wild-type and mutant kinases (313 kinase panel) (Homo sapiens, UniProt O75582)
[21] = target: panel of more than 300 wild-type and mutant kinases (313 kinase panel) (Homo sapiens, UniProt Q02779)

CNC(=O)c1ccccc1Sc1ccc2c(/C=C/c3ccccn3)n[nH]c2c1 [axitinib]
%-inhibition, CaMK2α ([1]; kinase CaMK2α, 1 μM compound): -6%
%-inhibition, AKT1 ([2]; kinase AKT1, 1 μM compound): 0.315%
%-inhibition, CDC2/CycB1 ([3]; kinase CDC2/CycB1, 1 μM compound): 5%
%-inhibition, CDK6/CycD3 ([4]; kinase CDK6/CycD3, 1 μM compound): -0.811%
%-inhibition, AMPKα1/β1/γ1 ([5]; kinase AMPKα1/β1/γ1, 1 μM compound): 68%
%-inhibition of HIPK1 ([6]; kinase HIPK1, compound at 1 μM): -6.53%
%-inhibition of TBK1 ([7]; kinase TBK1, 1 μM): 34%
%-inhibition, CaMK2γ ([8]; kinase CaMK2γ, 1 μM compound): -10%
%-inhibition of KIT(T670I) ([9]; kinase KIT(T670I), compound at 1 μM): 96%
%-inhibition, CK2α1/β ([10]; kinase CK2α1/β, 1 μM compound): -6%
%-inhibition of PLK3 ([11]; kinase PLK3, 1 μM): -3.41%
%-inhibition of MAP3K1 ([12]; kinase MAP3K1, compound at 1 μM): -2.64%
%-inhibition of PLK1 ([13]; kinase PLK1, 1 μM): -3.71%
%-inhibition of RSK4 ([14]; kinase RSK4, 1 μM): 44%
%-inhibition of MAP2K3 ([15]; kinase MAP2K3, compound at 1 μM): 7.58%
%-inhibition, CDK4/CycD3 ([16]; kinase CDK4/CycD3, 1 μM compound): -5%
%-inhibition of FES ([17]; kinase FES, compound at 1 μM): 0.247%
%-inhibition of p38β ([18]; kinase p38β, 1 μM): -2%
%-inhibition of KIT(V654A) ([19]; kinase KIT(V654A), compound at 1 μM): 99%
%-inhibition of MSK1 ([20]; kinase MSK1, 1 μM): 3.59%
%-inhibition of MLK2 ([21]; kinase MLK2, 1 μM): 7.53%

COc1cc2ncnc(Nc3ccc(F)c(Cl)c3)c2cc1OCCCN1CCOCC1 [gefitinib]
%-inhibition, CaMK2α ([1]; 1 µM): 0.793%
%-inhibition, AKT1 ([2]; 1 µM): 3.35%
%-inhibition, CDC2/CycB1 ([3]; 1 µM): 5.41%
%-inhibition, CDK6/CycD3 ([4]; 1 µM): 9%
%-inhibition, AMPKα1/β1/γ1 ([5]; 1 µM): 5.68%
%-inhibition of HIPK1 ([6]; 1 µM): 5.48%
%-inhibition of TBK1 ([7]; 1 µM): 26%
%-inhibition, CaMK2γ ([8]; 1 µM): 14%
%-inhibition of KIT(T670I) ([9]; 1 µM): 8%
%-inhibition, CK2α1/β ([10]; 1 µM): -1.13%
%-inhibition of PLK3 ([11]; 1 µM): 9%
%-inhibition of MAP3K1 ([12]; 1 µM): 10%
%-inhibition of PLK1 ([13]; 1 µM): -6.65%
%-inhibition of RSK4 ([14]; 1 µM): 23%
%-inhibition of MAP2K3 ([15]; 1 µM): 2.53%
%-inhibition, CDK4/CycD3 ([16]; 1 µM): 1.76%
%-inhibition of FES ([17]; 1 µM): 8.5%
%-inhibition of p38β ([18]; 1 µM): 1.71%
%-inhibition of KIT(V654A) ([19]; 1 µM): -1.42%
%-inhibition of MSK1 ([20]; 1 µM): 7%
%-inhibition of MLK2 ([21]; 1 µM): 31%

C[C@@H]1CCN(C(=O)CC#N)C[C@@H]1N(C)c1ncnc2[nH]ccc12 [tofacitinib]
%-inhibition, CaMK2α ([1]; 1 µM): -2.59%
%-inhibition, AKT1 ([2]; 1 µM): -6.52%
%-inhibition, CDC2/CycB1 ([3]; 1 µM): -1.16%
%-inhibition, CDK6/CycD3 ([4]; 1 µM): -1.56%
%-inhibition, AMPKα1/β1/γ1 ([5]; 1 µM): -3.32%
%-inhibition of HIPK1 ([6]; 1 µM): -7.54%
%-inhibition of TBK1 ([7]; 1 µM): 9%
%-inhibition, CaMK2γ ([8]; 1 µM): -9%
%-inhibition of KIT(T670I) ([9]; 1 µM): 2.56%
%-inhibition, CK2α1/β ([10]; 1 µM): -6.65%
%-inhibition of PLK3 ([11]; 1 µM): -5%
%-inhibition of MAP3K1 ([12]; 1 µM): -3.35%
%-inhibition of PLK1 ([13]; 1 µM): 1.47%
%-inhibition of RSK4 ([14]; 1 µM): 2.67%
%-inhibition of MAP2K3 ([15]; 1 µM): 2%
%-inhibition, CDK4/CycD3 ([16]; 1 µM): -5%
%-inhibition of FES ([17]; 1 µM): -0.74%
%-inhibition of p38β ([18]; 1 µM): -1.5%
%-inhibition of KIT(V654A) ([19]; 1 µM): -4.5%
%-inhibition of MSK1 ([20]; 1 µM): 9%
%-inhibition of MLK2 ([21]; 1 µM): 4.68%
